Amino acid sequences for entries named in this document (tags omitted). Residues count along the entry.
UniProt P12931, whole entry: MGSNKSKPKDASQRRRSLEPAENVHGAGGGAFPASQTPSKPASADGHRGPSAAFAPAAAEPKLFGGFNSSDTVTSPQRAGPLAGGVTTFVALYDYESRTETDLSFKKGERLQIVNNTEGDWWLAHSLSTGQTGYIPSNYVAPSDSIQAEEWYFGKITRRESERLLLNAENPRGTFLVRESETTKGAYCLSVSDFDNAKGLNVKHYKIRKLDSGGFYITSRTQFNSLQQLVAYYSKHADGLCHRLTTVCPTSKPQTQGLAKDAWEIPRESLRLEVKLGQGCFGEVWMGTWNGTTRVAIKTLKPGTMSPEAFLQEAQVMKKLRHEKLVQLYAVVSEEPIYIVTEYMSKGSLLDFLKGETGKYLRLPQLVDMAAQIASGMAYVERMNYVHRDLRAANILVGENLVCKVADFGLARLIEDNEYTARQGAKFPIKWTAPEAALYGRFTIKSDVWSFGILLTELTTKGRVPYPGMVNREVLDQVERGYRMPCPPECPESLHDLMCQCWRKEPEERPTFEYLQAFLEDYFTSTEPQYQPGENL
UniProt P07948, whole entry: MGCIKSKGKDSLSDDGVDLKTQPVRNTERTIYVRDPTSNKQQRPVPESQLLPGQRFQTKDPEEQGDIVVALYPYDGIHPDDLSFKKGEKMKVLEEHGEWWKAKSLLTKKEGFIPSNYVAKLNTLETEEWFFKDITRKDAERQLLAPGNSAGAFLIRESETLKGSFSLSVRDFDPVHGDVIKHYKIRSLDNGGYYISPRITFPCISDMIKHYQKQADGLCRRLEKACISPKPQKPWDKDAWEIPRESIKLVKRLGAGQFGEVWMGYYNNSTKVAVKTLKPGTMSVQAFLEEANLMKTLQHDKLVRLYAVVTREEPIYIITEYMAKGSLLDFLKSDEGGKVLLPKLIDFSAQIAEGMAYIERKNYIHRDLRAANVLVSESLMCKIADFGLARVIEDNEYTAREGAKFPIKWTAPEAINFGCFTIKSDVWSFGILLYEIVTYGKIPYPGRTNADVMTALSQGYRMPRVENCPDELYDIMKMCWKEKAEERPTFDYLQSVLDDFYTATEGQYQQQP
UniProt P06213, 28-1382 limits assumed: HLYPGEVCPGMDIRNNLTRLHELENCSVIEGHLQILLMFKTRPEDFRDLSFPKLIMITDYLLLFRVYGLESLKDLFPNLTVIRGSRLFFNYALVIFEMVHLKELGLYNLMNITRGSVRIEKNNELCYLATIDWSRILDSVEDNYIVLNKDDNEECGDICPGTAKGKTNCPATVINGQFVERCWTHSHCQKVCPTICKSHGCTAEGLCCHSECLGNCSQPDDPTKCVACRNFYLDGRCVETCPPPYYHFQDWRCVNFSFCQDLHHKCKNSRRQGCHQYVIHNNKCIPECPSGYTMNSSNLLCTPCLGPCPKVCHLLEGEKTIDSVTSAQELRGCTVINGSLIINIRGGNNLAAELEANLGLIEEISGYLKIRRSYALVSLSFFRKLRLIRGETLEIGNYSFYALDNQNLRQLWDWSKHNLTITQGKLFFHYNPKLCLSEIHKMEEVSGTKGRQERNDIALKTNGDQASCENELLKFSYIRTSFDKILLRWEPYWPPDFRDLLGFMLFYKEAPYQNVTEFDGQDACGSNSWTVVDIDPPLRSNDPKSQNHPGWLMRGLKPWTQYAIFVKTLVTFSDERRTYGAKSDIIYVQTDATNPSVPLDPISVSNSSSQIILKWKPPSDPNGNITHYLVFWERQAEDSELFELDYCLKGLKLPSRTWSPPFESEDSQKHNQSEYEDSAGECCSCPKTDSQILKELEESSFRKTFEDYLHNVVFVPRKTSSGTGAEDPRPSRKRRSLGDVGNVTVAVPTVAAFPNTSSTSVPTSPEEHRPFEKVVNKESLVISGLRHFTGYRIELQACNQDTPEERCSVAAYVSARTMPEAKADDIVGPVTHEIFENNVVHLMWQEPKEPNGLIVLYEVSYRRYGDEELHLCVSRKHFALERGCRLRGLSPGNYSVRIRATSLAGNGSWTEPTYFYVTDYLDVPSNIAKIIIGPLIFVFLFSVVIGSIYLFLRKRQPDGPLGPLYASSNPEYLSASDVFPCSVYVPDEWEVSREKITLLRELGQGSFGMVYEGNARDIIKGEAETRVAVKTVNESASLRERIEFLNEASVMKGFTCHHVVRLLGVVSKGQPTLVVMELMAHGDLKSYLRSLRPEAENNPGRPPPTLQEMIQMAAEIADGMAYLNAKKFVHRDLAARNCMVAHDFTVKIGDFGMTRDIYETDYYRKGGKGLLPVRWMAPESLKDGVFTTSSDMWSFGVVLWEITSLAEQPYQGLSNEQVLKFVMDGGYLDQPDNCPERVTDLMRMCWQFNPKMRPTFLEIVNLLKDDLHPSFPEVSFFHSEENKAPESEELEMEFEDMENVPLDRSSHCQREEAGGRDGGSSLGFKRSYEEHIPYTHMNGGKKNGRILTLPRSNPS
UniProt P00533, 25-1210 limits assumed: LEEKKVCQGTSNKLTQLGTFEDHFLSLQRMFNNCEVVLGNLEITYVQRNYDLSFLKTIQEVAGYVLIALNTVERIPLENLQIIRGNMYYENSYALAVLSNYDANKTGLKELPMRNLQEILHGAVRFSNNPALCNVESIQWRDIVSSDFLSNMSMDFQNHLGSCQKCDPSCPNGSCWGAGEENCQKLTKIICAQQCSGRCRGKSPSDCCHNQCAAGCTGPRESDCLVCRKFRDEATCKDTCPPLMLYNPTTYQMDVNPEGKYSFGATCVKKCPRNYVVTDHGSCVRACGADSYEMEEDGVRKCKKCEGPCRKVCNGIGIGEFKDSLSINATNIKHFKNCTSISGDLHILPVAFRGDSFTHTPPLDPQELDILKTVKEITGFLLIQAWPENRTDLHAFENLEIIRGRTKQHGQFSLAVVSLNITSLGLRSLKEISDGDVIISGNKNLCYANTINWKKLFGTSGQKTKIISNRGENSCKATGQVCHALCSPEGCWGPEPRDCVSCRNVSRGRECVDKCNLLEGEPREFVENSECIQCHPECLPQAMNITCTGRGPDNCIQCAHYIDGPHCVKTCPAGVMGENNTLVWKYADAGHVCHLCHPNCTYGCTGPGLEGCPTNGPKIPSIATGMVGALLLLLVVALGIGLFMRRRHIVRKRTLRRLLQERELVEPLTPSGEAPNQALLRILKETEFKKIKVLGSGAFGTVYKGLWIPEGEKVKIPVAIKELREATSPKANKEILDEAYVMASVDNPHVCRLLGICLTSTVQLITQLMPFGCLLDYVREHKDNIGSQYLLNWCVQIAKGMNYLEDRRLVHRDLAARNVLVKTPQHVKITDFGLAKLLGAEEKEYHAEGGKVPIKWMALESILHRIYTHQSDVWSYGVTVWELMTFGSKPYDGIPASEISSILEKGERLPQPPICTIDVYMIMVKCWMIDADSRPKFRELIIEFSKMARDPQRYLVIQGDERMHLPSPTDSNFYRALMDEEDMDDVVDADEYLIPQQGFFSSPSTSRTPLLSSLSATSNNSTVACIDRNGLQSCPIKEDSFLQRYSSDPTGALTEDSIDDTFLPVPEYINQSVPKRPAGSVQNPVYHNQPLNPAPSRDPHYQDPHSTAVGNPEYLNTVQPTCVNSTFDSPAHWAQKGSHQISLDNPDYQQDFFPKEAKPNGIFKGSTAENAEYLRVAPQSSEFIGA
UniProt P06239, whole entry: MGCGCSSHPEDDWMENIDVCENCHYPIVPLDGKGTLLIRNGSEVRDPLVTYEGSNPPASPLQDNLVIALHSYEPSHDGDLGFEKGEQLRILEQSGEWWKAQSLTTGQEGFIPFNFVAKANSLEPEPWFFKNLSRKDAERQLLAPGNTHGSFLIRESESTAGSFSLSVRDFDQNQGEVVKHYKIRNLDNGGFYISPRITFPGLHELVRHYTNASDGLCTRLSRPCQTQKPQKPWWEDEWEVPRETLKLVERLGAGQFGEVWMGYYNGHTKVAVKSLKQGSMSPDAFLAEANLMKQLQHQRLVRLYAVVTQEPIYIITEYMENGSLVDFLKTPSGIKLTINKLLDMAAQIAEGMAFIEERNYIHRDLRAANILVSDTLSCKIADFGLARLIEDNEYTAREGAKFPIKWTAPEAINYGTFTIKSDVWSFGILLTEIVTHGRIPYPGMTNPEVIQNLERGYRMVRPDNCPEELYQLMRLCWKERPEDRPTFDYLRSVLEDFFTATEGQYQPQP
UniProt Q05397, whole entry: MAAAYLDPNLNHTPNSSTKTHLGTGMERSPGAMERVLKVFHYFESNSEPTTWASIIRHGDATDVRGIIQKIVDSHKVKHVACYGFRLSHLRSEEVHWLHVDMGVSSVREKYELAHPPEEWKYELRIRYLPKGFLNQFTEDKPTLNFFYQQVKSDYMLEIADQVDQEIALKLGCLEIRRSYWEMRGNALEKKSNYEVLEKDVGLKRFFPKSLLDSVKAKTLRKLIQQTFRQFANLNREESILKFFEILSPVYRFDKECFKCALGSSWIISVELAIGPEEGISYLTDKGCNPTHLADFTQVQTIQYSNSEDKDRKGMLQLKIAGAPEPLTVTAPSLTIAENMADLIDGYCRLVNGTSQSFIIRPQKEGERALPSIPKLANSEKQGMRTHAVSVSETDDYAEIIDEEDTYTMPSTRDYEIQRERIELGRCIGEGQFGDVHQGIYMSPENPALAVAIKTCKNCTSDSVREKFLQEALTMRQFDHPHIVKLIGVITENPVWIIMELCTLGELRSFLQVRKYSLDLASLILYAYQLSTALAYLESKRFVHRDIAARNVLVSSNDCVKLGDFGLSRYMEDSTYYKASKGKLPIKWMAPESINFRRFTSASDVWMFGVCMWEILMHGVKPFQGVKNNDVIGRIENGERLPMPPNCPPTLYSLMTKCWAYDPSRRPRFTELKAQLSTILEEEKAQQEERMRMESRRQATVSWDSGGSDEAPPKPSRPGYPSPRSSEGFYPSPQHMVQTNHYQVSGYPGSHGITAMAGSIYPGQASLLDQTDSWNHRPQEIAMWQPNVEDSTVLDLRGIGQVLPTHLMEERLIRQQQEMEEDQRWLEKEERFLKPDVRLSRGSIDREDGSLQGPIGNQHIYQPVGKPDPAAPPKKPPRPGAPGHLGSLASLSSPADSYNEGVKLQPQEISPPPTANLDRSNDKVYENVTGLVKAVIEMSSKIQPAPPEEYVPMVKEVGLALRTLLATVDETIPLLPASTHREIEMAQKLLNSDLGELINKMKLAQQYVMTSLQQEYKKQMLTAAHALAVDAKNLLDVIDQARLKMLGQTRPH
UniProt P21802, 22-821 limits assumed: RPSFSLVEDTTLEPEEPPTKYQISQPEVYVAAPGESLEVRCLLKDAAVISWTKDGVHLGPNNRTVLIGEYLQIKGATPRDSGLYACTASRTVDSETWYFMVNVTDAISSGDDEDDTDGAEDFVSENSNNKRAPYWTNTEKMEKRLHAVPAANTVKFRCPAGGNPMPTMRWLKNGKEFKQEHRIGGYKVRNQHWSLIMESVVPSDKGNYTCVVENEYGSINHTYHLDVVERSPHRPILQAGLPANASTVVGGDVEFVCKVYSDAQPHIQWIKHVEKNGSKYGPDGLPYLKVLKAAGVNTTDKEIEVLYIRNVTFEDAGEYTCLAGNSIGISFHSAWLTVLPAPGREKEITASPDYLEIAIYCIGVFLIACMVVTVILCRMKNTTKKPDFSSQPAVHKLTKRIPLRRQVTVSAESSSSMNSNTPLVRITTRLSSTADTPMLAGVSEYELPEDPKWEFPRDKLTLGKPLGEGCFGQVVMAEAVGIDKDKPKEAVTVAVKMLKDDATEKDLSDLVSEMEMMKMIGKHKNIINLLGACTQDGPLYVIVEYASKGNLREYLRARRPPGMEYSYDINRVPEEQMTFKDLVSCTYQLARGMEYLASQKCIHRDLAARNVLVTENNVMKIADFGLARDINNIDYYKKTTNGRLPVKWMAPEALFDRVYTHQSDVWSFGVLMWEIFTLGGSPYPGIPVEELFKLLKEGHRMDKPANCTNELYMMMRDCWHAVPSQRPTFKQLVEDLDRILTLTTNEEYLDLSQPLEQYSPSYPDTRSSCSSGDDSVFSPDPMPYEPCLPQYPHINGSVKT
UniProt P06241, whole entry: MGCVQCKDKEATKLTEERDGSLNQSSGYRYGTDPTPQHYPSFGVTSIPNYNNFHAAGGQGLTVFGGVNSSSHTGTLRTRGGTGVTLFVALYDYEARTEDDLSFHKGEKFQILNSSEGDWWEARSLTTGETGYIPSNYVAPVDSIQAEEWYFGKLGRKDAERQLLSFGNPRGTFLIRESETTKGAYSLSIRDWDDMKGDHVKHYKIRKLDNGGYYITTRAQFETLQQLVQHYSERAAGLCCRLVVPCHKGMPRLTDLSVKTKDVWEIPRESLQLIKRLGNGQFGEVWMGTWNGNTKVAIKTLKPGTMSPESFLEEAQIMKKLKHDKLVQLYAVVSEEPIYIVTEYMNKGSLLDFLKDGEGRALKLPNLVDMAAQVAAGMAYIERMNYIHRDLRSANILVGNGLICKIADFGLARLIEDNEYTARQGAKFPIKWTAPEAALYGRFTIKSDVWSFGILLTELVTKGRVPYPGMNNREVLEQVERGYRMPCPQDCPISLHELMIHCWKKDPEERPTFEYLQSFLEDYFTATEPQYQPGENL

In patent publication US7838542B2, “Bicyclic compositions and methods for modulating a kinase cascade” (Kinex Pharmaceuticals, LLC, priority 2006, dated 2010):

Columns and labels:
[1] = test system: c-Src/NIH-3T3 engineered cell line; assay: Src-driven cell growth, c-Src/NIH-3T3; type: cell-based
[2] = test system: NCI human colon cancer cell line HT29; assay: Cell growth, HT29; type: cell-based; conditions: read-out: GI50, HT29
Src = Src (Homo sapiens, UniProt P12931); assay: Isolated kinase assay and titration, Src; type: biochemical; conditions: for IC50: read-out: IC50, isolated Src, titration data
Lyn = Lyn (Homo sapiens, UniProt P07948); assay: Isolated kinase assay, Lyn; type: biochemical
FAK Tyr 925 = assay: Intracellular phosphorylation: FAK Tyr 925; type: cell-based; conditions: c-Src/NIH-3T3 and HT-29 cells
Paxillin Y-31 = assay: Intracellular phosphorylation: Paxillin Y-31; type: cell-based; conditions: c-Src/NIH-3T3 cells
[3] = test system: PDGF receptor tyrosine kinase Y572/574; assay: PDGF receptor autophosphorylation Y572/574; type: cell-based; conditions: c-Src/NIH-3T3 cells
IR(h) = IR(h) (Homo sapiens, UniProt P06213); assay: Isolated kinases, percent activity relative to control (Table XV), IR; type: biochemical; conditions: @ 10 μM
EGFRTK = EGFRTK (Homo sapiens, UniProt P00533); assay: Isolated kinase assay, EGFRTK; type: biochemical
ZAP-70(h) = ZAP-70(h) (Homo sapiens, UniProt P43403); assay: Isolated kinases, percent activity relative to control (Table XV), ZAP-70; type: biochemical; conditions: @ 10 μM
Lck = Lck (Homo sapiens, UniProt P06239); assay: Isolated kinase assay, Lck; type: biochemical
FAK Y397 = FAK Y397 autophosphorylation; type: cell-based; conditions: c-Src527F/NIH3T3 cells
Yes = Yes (Homo sapiens, UniProt P07947); assay: Isolated kinase assay, Yes; type: biochemical
Abl = Abl (Homo sapiens, UniProt P00519); assay: Isolated kinase assay, Abl; type: biochemical
MAPK2(h) = MAPK2(h) (Homo sapiens, UniProt P28482); assay: Isolated kinases, percent activity relative to control (Table XV), MAPK2; type: biochemical; conditions: @ 10 μM
[4] = test system: osteoclast precursors derived from spleen cells; assay: Osteoclast formation from spleen-derived precursors; type: cell-based; conditions: 5 days with RANKL and M-CSF; versus untreated control
Shc Y239/240 = assay: Intracellular phosphorylation: Shc Y239/240; type: cell-based; conditions: c-Src/NIH-3T3 and HT-29 cells
[5] = test system: PDGF receptor tyrosine kinase; assay: Isolated kinase assay, PDGF receptor tyrosine kinase; type: biochemical
PKCα(h) = PKCα(h) (Homo sapiens, UniProt P17252); assay: Isolated kinases, percent activity relative to control (Table XV), PKCα; type: biochemical; conditions: @ 10 μM
[6] = test system: osteoclasts on bone slices; assay: Bone resorption in vitro on bone slices; type: cell-based; conditions: versus untreated control
osteoclasts = assay: Osteoclast survival; type: cell-based; conditions: 48 hours with RANKL and M-CSF; versus untreated control
EGFR tyrosine kinase = EGFR tyrosine kinase autophosphorylation; type: cell-based; conditions: c-Src/NIH-3T3 and HT-29 cells
FAK = FAK (Homo sapiens, UniProt Q05397); assay: Isolated kinase assay and titration, FAK; type: biochemical
Src-Y416 = assay: Intracellular phosphorylation: Src-Y416 autophosphorylation; type: cell-based; conditions: HT29 and c-Src527F/NIH-3T3 cells; 0.2×, 1×, 5×, 25× GI50
IGF-1R(h) = IGF-1R(h) (Homo sapiens, UniProt P08069); assay: Isolated kinases, percent activity relative to control (Table XV), IGF-1R; type: biochemical; conditions: @ 10 μM
Caspase-3 = assay: Induction of apoptosis via Caspase 3 cleavage; type: cell-based; conditions: HT29 and c-Src527F/NIH-3T3 cells
FGFR2(h) = FGFR2(h) (Homo sapiens, UniProt P21802); assay: Isolated kinases, percent activity relative to control (Table XV), FGFR2; type: biochemical; conditions: @ 10 μM
total phosphotyrosine = assay: Total phosphotyrosine levels; type: cell-based; conditions: HT29 and c-Src527F/NIH-3T3 cells
Chinchillas = assay: Noise-induced hearing loss, round window application (Example 12); type: in vivo, chinchilla; conditions: 4 kHz band noise at 105 dB SPL, four hours, day 1, 7, 21
PI3 kinase = assay: Isolated kinases, percent activity relative to control (Table XV), PI3 kinase; type: biochemical; conditions: @ 10 μM
Pyk2(h) = Pyk2(h) (Homo sapiens, UniProt Q14289); assay: Isolated kinases, percent activity relative to control (Table XV), Pyk2; type: biochemical; conditions: @ 10 μM
Fyn = Fyn (Homo sapiens, UniProt P06241); assay: Isolated kinase assay, Fyn; type: biochemical

CN1CCN(CCOc2ccc(-c3ccc(CC(=O)NCc4cccc(F)c4)nc3)c(F)c2)CC1
GI50 ([1]; read-out: GI50, c-Src/NIH-3T3): 13 nM
GI50 [2]: 794 nM
potency against isolated Src compared with KX2-391 (Src): a little more potent against isolated Src
IC50 (Src): 5000 nM

COc1cc2c(Nc3c(Cl)ccc4c3OCO4)ncnc2cc1OCCCN1CCCCC1
inhibition of isolated Lyn (Lyn): strong inhibition
percent activity of isolated kinase relative to control, Lyn(h) (Lyn; @ 10 μM): 0%
phosphorylation of FAK Tyr 925 (FAK Tyr 925): inhibited Src trans-phosphorylation
phosphorylation of Paxillin Y-31 (Paxillin Y-31): inhibited Src trans-phosphorylation
PDGF receptor autophosphorylation [3]: dose response reduction in PDGF receptor autophosphorylation
percent activity of isolated kinase relative to control, IR(h) (IR(h)): 125%
percent activity of isolated kinase relative to control, EGFR(h) (EGFRTK; @ 10 μM): 3%
inhibition of isolated EGFRTK (EGFRTK; listed as AZ28): potent EGFR tyrosine kinase inhibitor
inhibition of isolated EGFRTK (EGFRTK; listed as AstraZeneca ATP competitive inhibitor): strong inhibition
percent activity of isolated kinase relative to control, ZAP-70(h) (ZAP-70(h)): 97%
inhibition of isolated Lck (Lck): strong inhibition
percent activity of isolated kinase relative to control, Lck(h) (Lck; @ 10 μM): 1%
FAK autophosphorylation (Y397) (FAK Y397): some inhibition of FAK autophosphorylation
inhibition of isolated Yes (Yes): strong inhibition
percent activity of isolated kinase relative to control, Yes(h) (Yes; @ 10 μM): 1%
inhibition of isolated Abl (Abl): strong inhibition
percent activity of isolated kinase relative to control, Ab1(h) (Abl; @ 10 μM): 1%
times less potent against cell growth than against isolated Src [1]: 10-100 ×
percent activity of isolated kinase relative to control, MAPK2(h) (MAPK2(h)): 105%
formation of osteoclasts (staining) [4]: inhibited the formation of osteoclasts
number of TRAP-positive osteoclasts (formation) [4]: reduced the number of TRAP-positive osteoclasts
phosphorylation of Shc Y239/240 (Shc Y239/240): inhibited Src trans-phosphorylation
inhibition of isolated PDGF receptor tyrosine kinase [5]: not a potent inhibitor
percent activity of isolated kinase relative to control, PDGFRβ(h) ([5]; @ 10 μM): 98%
percent activity of isolated kinase relative to control, PKCα(h) (PKCα(h)): 111%
number of TRAP-positive osteoclasts on the bone slices (TRAP stain) [6]: reduced the number of TRAP-positive osteoclasts on the bone slices
number of osteoclasts on the bone slices [6]: reduced the number of osteoclasts on the bone slices
number of resorption pits on the bone slices [6]: reduced the number of resorption pits on the bone slices
number of resorption pits on the bone slices (Toluidine Blue) [6]: reduced the number of resorption pits on the bone slices
number of TRAP-positive osteoclasts (survival) (osteoclasts): reduced the number of TRAP-positive osteoclasts
survival of osteoclasts (staining) (osteoclasts): inhibited the survival of osteoclasts
EGFR tyrosine kinase autophosphorylation (EGFR tyrosine kinase): potently inhibits EGFR tyrosine kinase autophosphorylation
inhibition of isolated FAK (FAK): not a potent FAK inhibitor
times less potent against isolated FAK than against isolated Src (FAK): ≥ 100 ×
IC50 (FAK; read-out: IC50, isolated FAK, titration data): > 500 nM
Src-Y416 autophosphorylation (Src-Y416): expected dose response
percent activity of isolated kinase relative to control, IGF-1R(h) (IGF-1R(h)): 110%
induction of apoptosis (Caspase-3 cleavage) (Caspase-3): not effective in inducing apoptosis
percent activity of isolated kinase relative to control, FGFR2(h) (FGFR2(h)): 94%
total phosphotyrosine levels (total phosphotyrosine): reduction in the total phosphotyrosine levels
average dB threshold shifts, treated ears versus control (Chinchillas): lower
percent activity of isolated kinase relative to control, PI3 kinase (PI3 kinase): 99%
percent activity of isolated kinase relative to control, Pyk2(h) (Pyk2(h)): 43%
inhibition of isolated Fyn (Fyn): strong inhibition
percent activity of isolated kinase relative to control, Fyn(h) (Fyn; @ 10 μM): 2%
IC50 (Src): 8 nM
